Measured values from paper PMC7730441, “Acetylcholinesterase and butyrylcholinesterase inhibitory activities of khellactone coumarin derivatives isolated from Peucedanum japonicum Thurnberg” (Scientific Reports, 2020).

By UniProt entry, the sequences of proteins in these tests, tags left out. Residues count along the entry.
UniProt P81908, whole entry: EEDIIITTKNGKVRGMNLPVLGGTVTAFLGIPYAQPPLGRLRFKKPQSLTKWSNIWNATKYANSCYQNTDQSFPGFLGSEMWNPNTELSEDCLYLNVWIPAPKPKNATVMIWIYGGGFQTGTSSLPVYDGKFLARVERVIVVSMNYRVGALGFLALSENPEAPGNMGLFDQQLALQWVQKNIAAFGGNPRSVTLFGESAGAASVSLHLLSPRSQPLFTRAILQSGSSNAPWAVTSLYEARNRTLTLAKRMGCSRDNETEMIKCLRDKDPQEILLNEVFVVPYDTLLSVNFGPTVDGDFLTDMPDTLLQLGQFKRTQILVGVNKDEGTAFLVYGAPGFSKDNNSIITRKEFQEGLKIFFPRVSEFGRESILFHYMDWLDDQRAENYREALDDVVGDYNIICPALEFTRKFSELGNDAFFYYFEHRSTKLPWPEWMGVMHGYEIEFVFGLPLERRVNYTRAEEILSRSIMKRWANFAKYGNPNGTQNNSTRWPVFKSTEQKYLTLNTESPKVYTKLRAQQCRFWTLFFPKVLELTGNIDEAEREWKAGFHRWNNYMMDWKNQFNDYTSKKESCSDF
UniProt O42275, 24-633: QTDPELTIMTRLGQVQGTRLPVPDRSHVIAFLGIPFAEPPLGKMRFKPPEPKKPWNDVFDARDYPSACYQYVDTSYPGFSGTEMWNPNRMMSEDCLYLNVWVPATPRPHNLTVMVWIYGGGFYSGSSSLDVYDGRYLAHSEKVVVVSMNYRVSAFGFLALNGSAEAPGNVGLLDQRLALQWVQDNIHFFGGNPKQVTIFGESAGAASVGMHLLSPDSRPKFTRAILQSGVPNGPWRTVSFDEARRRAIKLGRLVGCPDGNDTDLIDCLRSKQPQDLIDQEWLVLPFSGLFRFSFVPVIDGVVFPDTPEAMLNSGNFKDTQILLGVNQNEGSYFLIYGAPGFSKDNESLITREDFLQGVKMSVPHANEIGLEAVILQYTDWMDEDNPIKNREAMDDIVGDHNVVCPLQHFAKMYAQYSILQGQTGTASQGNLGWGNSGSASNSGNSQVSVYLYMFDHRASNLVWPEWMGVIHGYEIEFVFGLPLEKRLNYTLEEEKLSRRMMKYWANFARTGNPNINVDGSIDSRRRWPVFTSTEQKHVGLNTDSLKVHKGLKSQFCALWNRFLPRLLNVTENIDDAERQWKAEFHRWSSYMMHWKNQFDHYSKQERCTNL

Key:
BChE (from equine serum) = molecular target: T1, BChE (from equine serum) (Equus caballus, UniProt P81908); format: biochemical; conditions: read-out: IC50 (µM) BChE; 15 min preincubation
T1 construct: BChE (from equine serum); purchased Sigma-Aldrich; host or cells: equine serum
Protocol: (§1) AChE assays were performed as described by Ellman et al.[41] with slight modifications. […] DTNB was used for color development, caused by reaction between it and thiocholine (a product of AChE). For inhibitory assays, compounds were preincubated with AChE for 15 min prior to ATCI and DTNB addition. BChE activity was assayed using the same method, but BTCI was used instead of ATCI.
(§2) Inhibitions of the activities of AChE, BChE, MAO-A, and MAO-B by the 15 compounds were investigated at an inhibitor concentration of 10 µM. IC50 values were also determined. […] The inhibition types and Ki values were determined using Lineweaver–Burk Plots and secondary plots.

[1] = molecular target: T2, AChE (Type VI-S; from Electrophorus electricus) (Electrophorus electricus, UniProt O42275); format: biochemical; conditions: read-out: IC50 (µM) AChE; 15 min preincubation
T2 construct: AChE (Type VI-S; from Electrophorus electricus); purchased Sigma-Aldrich Type VI-S (catalogue number not given)
Protocol: as §1, §2

Pteryxin [PJ2]
IC50 (BChE (from equine serum)): > 40 µM | IC50 [1]: > 40 µM
